# Reference: ChEMBL document CHEMBL4390642, “The in vivo antinociceptive and μ-opioid receptor activating effects of the combination of N-phenyl-2',4'-dimethyl-4,5'-bi-1,3-thiazol-2-amines and naloxone” (Eur J Med Chem, 2019)
# The chains behind the UniProt entries cited, without tags or fusion partners.
# UniProt P35372, whole entry: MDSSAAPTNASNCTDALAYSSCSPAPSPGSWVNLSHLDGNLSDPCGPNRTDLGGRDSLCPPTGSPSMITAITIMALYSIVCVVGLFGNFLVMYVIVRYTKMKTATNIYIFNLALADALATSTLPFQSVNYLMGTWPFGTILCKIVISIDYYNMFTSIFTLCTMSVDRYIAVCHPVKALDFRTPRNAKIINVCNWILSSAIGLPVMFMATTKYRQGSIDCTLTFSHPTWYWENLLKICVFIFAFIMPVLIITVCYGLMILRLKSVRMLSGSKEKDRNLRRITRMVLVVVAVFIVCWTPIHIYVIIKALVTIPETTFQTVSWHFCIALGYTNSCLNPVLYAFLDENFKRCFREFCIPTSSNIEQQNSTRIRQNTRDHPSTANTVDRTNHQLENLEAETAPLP
# Biological target: Mu-type opioid receptor (Homo sapiens, UniProt P35372)
# Test: Agonist activity at human mu opioid receptor expressed in CHOK1 cells coexpressing Galpha15 assessed as intracellular calcium AUC in presence of mu opioid receptor antagonist naloxone and incubated for 1 hr measured for 90 secs at 1.5 sec interval by FLIPR assay to morphine
# Format: functional, cell-based
# Set-up: concentration or dose not given beside the values
smiles,measurement,value
CCc1ccccc1Nc1nc(-c2sc(C)nc2C)cs1,Activity,60.5%
